The source of these data is publication PMC13376213, “Systematic discovery of motif-based interactions of the auxiliary domains of USP family deubiquitinases” (Nature Communications, 2026).

The experiment has as its target T1, USP20 zf-UBP domain (Homo sapiens, UniProt Q9Y2K6).
T1 construct: USP20_UBP; Q9Y2K6; zf-UBP; 99; 6xHis-GST (N, cleaved yes); made in house; host or cells: Escherichia coli BL21-Gold (DE3)
Briefly: FP-monitored affinity measurements, USP20 zf-UBP. Type of experiment: binding. The note with it: USP20_UBP; direct FP titration (saturation) of the FITC-labelled peptide.

Consider `CC(C)C[C@H](NC(=O)[C@H](CC(=O)O)NC(=O)[C@H](CO)NC(=O)[C@H](CCCNC(=N)N)NC(=O)[C@H](CCC(N)=O)NC(=O)[C@H](CCC(N)=O)NC(=O)[C@H](CCCCN)NC(=S)Nc1ccc2c(c1)C(=O)OC21c2ccc(O)cc2Oc2cc(O)ccc21)C(=O)N[C@@H](CC(N)=O)C(=O)NCC(=O)N1CCC[C@H]1C(=O)N[C@H](C(=O)N[C@@H](CC(=O)O)C(N)=O)C(C)C` [FITC_APBA2], for which the affinity, expressed as Kd, was 2910 nM.
